Measured values taken from PubChem BioAssay AID2235 (The Scripps Research Institute Molecular Screening Center, 2010).
Only a part is listed here, and it is no random draw. The source made the active and inactive calls.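 The calls were made as follows: active = inhibition above the mean inhibition of all tested compounds plus 3 SD, computed separately for each screening campaign (cut at about 15% in these data); inactive = the rest.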

Sequences of proteins named here, by UniProt entry; tags and fusion partners are left off.
UniProt P62136, whole entry: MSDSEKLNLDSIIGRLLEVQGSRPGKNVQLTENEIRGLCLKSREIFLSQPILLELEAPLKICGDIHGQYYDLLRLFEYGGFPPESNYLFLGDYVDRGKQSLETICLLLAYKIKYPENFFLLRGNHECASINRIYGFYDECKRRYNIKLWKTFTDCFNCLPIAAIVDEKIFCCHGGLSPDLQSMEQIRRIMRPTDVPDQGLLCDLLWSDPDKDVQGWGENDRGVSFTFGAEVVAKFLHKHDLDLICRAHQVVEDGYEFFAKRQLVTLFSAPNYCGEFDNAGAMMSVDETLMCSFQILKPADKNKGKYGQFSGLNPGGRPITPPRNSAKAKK

The compounds below were run against Serine/threonine-protein phosphatase PP1-alpha catalytic subunit (Homo sapiens) (UniProt P62136) (assay: inhibition of human PP1 catalytic subunit – biochemical, fluorescence, OMFP substrate, single point, counter-screen for PP5 inhibitor project, primary screen (AID 2235)). Conditions: purified PP1alpha, at 6.7 µM, stronger effect = higher value.

Row | SMILES | inhibition
1 | COc1ccc(NC2CCN(CCc3ccccc3)CC2)c(OC)c1 | inactive: -2.61%
2 | O=C(NCC1(N2CCCCC2)CCCCC1)c1ccc(F)cc1 | inactive: -4.23%
3 | CCOc1ccc(C)cc1CN(CCCl)CCCl | inactive: -1.2%
4 | Cc1ccc(OCC(C)C)c(CN(CCCl)CCCl)c1 | inactive: -3.96%
5 | CCOC(=O)N1CCC(Nc2cccc(C)c2)CC1 | inactive: 0.16%
6 | CSc1ccccc1C(=O)NCC1(N2CCCCC2)CCCCC1 | inactive: -9.96%
7 | CC(C)(C)OC(=O)N1CCC(N(C(=O)c2ccccc2)c2ccc(F)cc2)CC1 | inactive: 1.15%
8 | COc1ccc(C(=O)NCC2(N3CCCCC3)CCCCC2)c(OC)c1OC | inactive: -0.77%
9 | COc1ccc(C(=O)NCC2(N3CCCCC3)CCCCC2)cc1 | inactive: -3.97%
10 | O=C(NCC1(N2CCCCC2)CCCCC1)c1cccs1 | inactive: -4.41%
11 | O=C(NCC1(N2CCCCC2)CCCCC1)c1ccc(=O)[nH]c1 | inactive: -2.36%
12 | COc1ccc(Cl)cc1C(=O)NCC1(N2CCOCC2)CCCCC1 | inactive: -1.73%
13 | N#CC1(Nc2ccccc2)CCN(Cc2ccccc2)CC1 | inactive: -3.95%
14 | O=C(NCC1(N2CCCCC2)CCCCC1)c1ccc(Cl)s1 | inactive: 2.66%
15 | O=C(OC1CN2CCC1CC2)C1c2ccccc2Oc2ccccc21 (stereo unspecified) | inactive: 6.61%
16 | CCOC(=O)N1CCC(Nc2ccc(OC)cc2)CC1 | inactive: 0.94%
17 | Cc1cc(C)cc(N(C(=O)c2ccccc2)C2CCN(C(=O)OC(C)(C)C)CC2)c1 | inactive: 11.1%
18 | O=C(NCC1(N2CCCCC2)CCCCC1)c1ccc(Cl)nc1 | inactive: 0.88%
19 | O=C(NCC1(N2CCOCC2)CCCCC1)c1cc2ccccc2o1 | inactive: -2.78%
20 | COc1cc(OC)c(C(=O)NCC2(N(C)C)CCCCC2)cc1OC | inactive: -3.83%
21 | CC(C)c1ccc(NC2CCN(C(=O)OC(C)(C)C)CC2)cc1 | inactive: -0.39%

Row | SMILES | inhibition
22 | CN(C)c1cccc(C(=O)NCC2(N3CCCCC3)CCCCC2)c1 | inactive: -4.46%
23 | COc1ccc(CN(CCCl)CCCl)cc1Cl | inactive: -2.6%
24 | CN1CCC(Nc2cccc(F)c2)CC1 | inactive: 1.48%
25 | O=C(NCC1(N2CCCCC2)CCCCC1)c1cncc(Br)c1 | inactive: -1.43%
26 | N#CC1(Nc2ccccc2)CCN(CCc2ccccc2)CC1 | inactive: 1.91%
27 | CCN1CCC(Nc2ccc(Cl)cc2)CC1 | inactive: -0.39%
28 | O=C(NCC1(N2CCCCC2)CCCCC1)c1cccc([N+](=O)[O-])c1 | inactive: -0.4%
29 | O=C(NCC1(N2CCCCC2)CCCCC1)c1ccc(OC(F)F)cc1 | inactive: 4.33%
30 | O=C(NCC1(N2CCOCC2)CCCCC1)c1cc(=O)[nH]c2ccccc12 | inactive: -13.3%
31 | COc1cc(C(=O)NCC2(N3CCCCC3)CCCCC2)ccc1OC(F)F | inactive: -3.76%
32 | COc1ccc(NC2CCN(C(=O)OC(C)(C)C)CC2)cc1 | inactive: 0.17%
33 | CN1CCN(CCOC(=O)C(O)(c2ccccc2)c2ccccc2)CC1 | inactive: -3.49%
34 | O=C(NCC1(N2CCCCC2)CCCCC1)c1cccc(C(F)(F)F)c1 | inactive: -2.53%
35 | N#Cc1ccc(C(=O)NCC2(N3CCCCC3)CCCCC2)cc1 | inactive: -7.87%
36 | CC(C)(C)OC(=O)N1CCC(N(C(=O)c2ccccc2)c2ccc(Cl)cc2)CC1 | inactive: 0.87%
37 | CN(C)C1(CNC(=O)c2cccc(C#N)c2)CCCCC1 | inactive: -2.8%
38 | CCCN1CCC(Nc2cc(OC)cc(OC)c2)CC1 | inactive: -2.78%
39 | c1ccc(CN2CCC(Nc3ccccc3)CC2)cc1 | inactive: -5.79%
40 | COc1ccc(C(=O)NCC2(N3CCOCC3)CCCCC2)cc1OC | inactive: -1.25%
41 | O=C(NCC1(N2CCOCC2)CCCCC1)c1cc(Br)ccc1Cl | inactive: -3.28%
42 | CCc1cc(C(=O)NCC2(N3CCCCC3)CCCCC2)sc1C | inactive: -5.07%

Row | SMILES | inhibition
43 | O=C(OC1CN2CCC1CC2)C1c2ccccc2C=Cc2ccccc21 (stereo unspecified) | inactive: -3.35%
44 | CCOC(=O)N1CCC(Nc2ccc(C)cc2)CC1 | inactive: 0.8%
45 | N/C(=N\O)c1c(N)no[n+]1[O-] | inactive: 1.66%
46 | O=C(O)C1(Nc2ccccc2)CCN(Cc2ccccc2)CC1 | inactive: 8.11%
47 | CC(C)(C)OC(=O)N1CCC(Nc2ccccc2)CC1 | inactive: -4.35%
48 | CCCOc1ccc(C(=O)NCC2(N(C)C)CCCCC2)cc1 | inactive: -1.88%
49 | CN1CCC(Nc2ccc(F)c(Cl)c2)CC1 | inactive: -3.21%
50 | CCOc1ncccc1C(=O)NCC1(N2CCOCC2)CCCCC1 | inactive: -2.68%
51 | CN1CCC(Nc2ccc(Cl)cc2)CC1 | inactive: -3.43%
52 | CCCOc1ccc(C)cc1CN(CCCl)CCCl | inactive: -2.99%
53 | COc1cccc(C(=O)N(c2cc(C)cc(C)c2)C2CCN(C(=O)OC(C)(C)C)CC2)c1 | inactive: 2.68%
54 | COc1cc(OC)cc(C(=O)NCC2(N3CCOCC3)CCCCC2)c1 | inactive: 0.27%
55 | CCC(CO)(C(=O)OC1CN2CCC1CC2)c1ccccc1 (stereo unspecified) | inactive: -1.94%
56 | Fc1ccccc1NC1CCN(Cc2ccccc2)CC1 | inactive: -0.12%
57 | Cc1ccc(C(=O)NCC2(N3CCCCC3)CCCCC2)o1 | inactive: -3.73%
58 | COc1cc(OC)cc(C(=O)NCC2(N3CCCCC3)CCCCC2)c1 | inactive: 2.49%
59 | CN(C)c1ccc(C(=O)NCC2(N3CCCCC3)CCCCC2)cc1 | inactive: -1.14%
60 | O=C(NCC1(N2CCCCC2)CCCCC1)c1ccco1 | inactive: -6.71%
61 | CCN1CCC(Nc2cccc(F)c2)CC1 | inactive: 1.28%
